Data published in US4743541A, “Luminescent substrate preparation and its use in specific binding assays” (priority 1985, dated 1988).
Like-named read-outs stand apart in the source and are kept apart here.

Biological target: T1, horseradish peroxidase (HRP) (Armoracia rusticana, UniProt P00433)
T1 sequence (P00433 31-353): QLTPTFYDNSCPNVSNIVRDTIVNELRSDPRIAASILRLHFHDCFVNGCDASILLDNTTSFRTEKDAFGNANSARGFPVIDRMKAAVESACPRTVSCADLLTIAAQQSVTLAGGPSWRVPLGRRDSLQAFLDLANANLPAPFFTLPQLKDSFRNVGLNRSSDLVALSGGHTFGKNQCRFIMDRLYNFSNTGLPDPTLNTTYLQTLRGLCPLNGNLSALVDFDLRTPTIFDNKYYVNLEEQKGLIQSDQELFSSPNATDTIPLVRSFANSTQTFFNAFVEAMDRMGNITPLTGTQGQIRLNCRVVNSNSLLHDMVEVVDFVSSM
Conditions: for Uniformity of light emission over time after initiation of the reaction: catalyzed luminol oxidation reaction
Description: A standardized test procedure for measuring luminol light output has been established. To 0.5 ml of 50 mM borate buffer, pH 9.4, are added 0.5 ml of 40 mM luminol in 45 mM NaOH, pH 11.0; 0.5 ml of 4 mM hydrogen peroxide in 0.01M phosphate buffered saline (PBS), pH 7.0; 0.4 ml of deionized water; and 0.1 ml of 200 mU/ml horseradish peroxidase (HRP) to yield a final 2.0 ml volume containing; 10 mM luminol; 1 mM H2 O2; 12.5 mM borate buffer, pH 9.4; and 20 mU HRP in an aqueous solution having a final pH of 9.4. The enzyme HRP is added last, the solution mixed and relative intensity readings taken on an Ames Fluorocolorimeter (Miles Labs, Inc., Elkhart, IN) at various time points from 1 minute to 2 hours.

[1] = 10 mM luminol, 1 mM H2O2, 20 mU HRP, pH 9.4, Ames Fluorocolorimeter, time point not stated
[2] = 5 min after initiation of reaction
[3] = 10 min after initiation of reaction
[4] = 20 min after initiation of reaction
[5] = 30 min after initiation of reaction
[6] = 40 min after initiation of reaction
[7] = 50 min after initiation of reaction
[8] = 60 min after initiation of reaction
[9] = 70 min after initiation of reaction
[10] = 80 min after initiation of reaction
[11] = 90 min after initiation of reaction
[12] = 100 min after initiation of reaction
[13] = 110 min after initiation of reaction
[14] = 120 min after initiation of reaction

Nc1cccc2c(=O)[nH][nH]c(=O)c12 [Second crystallization]
Luminescent Intensity Units [1]: 0.622

Nc1cccc2c(=O)[nH][nH]c(=O)c12 [First crystallization]
Luminescent Intensity Units [1]: 0.029

Nc1cccc2c(=O)[nH][nH]c(=O)c12 [Commercial Luminol, 5-amino-2,3-dihydro-1,4-phthalazinedione, reference compound]
Luminescent Intensity Units [1]: 0.016 | Luminescent Intensity Units [2]: 0.013 | Luminescent Intensity Units [3]: 0.012 | Luminescent Intensity Units [4]: 0.011 | Luminescent Intensity Units [5]: 0.011 | Luminescent Intensity Units [6]: 0.010 | Luminescent Intensity Units [7]: 0.008 | Luminescent Intensity Units [8]: 0.007 | Luminescent Intensity Units [9]: 0.006 | Luminescent Intensity Units [10]: 0.005 | Luminescent Intensity Units [11]: 0.005 | Luminescent Intensity Units [12]: 0.005 | Luminescent Intensity Units [13]: 0.005 | Luminescent Intensity Units [14]: 0.005 | Uniformity of light emission over time after initiation of the reaction (listed as untreated luminol): substantial decrease in light emission over time

Nc1cccc2c(=O)[nH][nH]c(=O)c12 [Third crystallization]
Luminescent Intensity Units [1]: 1.036

Nc1cccc2c(=O)[nH][nH]c(=O)c12 [Activated Luminol]
Luminescent Intensity Units (10 mM luminol, 1 mM H2O2, 20 mU HRP, pH 9.4, Ames Fluorocolorimeter, time point not stated, listed as Fourth crystallization): 1.046 | Luminescent Intensity Units [2]: 1.02 | Luminescent Intensity Units [3]: 0.95 | Luminescent Intensity Units [4]: 0.95 | Luminescent Intensity Units [5]: 0.96 | Luminescent Intensity Units [6]: 0.97 | Luminescent Intensity Units [7]: 0.98 | Luminescent Intensity Units [8]: 0.98 | Luminescent Intensity Units [9]: 0.98 | Luminescent Intensity Units [10]: 0.98 | Luminescent Intensity Units [11]: 0.97 | Luminescent Intensity Units [12]: 0.97 | Luminescent Intensity Units [13]: 0.96 | Luminescent Intensity Units [14]: 0.96 | Uniformity of light emission over time after initiation of the reaction (listed as luminol preparation): does not substantially decrease | Uniformity of light emission over time after initiation of the reaction (listed as luminol subjected to four repetitions of the treatment sequence): substantially uniform unit light intensity from about 5 minutes to about 120 minutes | Unit light output compared with commercially available, untreated luminol (relative to untreated commercial luminol, listed as activated luminol preparation): multiplied by a factor of at least about ten
